This assay deals with ERα receptor in MCF-7 cells (Homo sapiens (Human), UniProt P03372). Nature of the assay: MCF-7 ER down-regulation assay (immuno-fluorescence). Type of assay: cell-based. The note with it: shown in parentheses. On the procedure: The Echo uses acoustic technology to perform direct microplate-to-microplate transfers of DMSO compound solutions to assay plates. […] Cells were fixed at room temperature for 20 mins before being washed two times with 250 μL PBS/Proclin (PBS with a Biocide preservative) using a BioTek platewasher, 40 μL of PBS/Proclin was then added to all wells and the plates stored at 4° C. The fixing method described above was carried out on the Integrated Echo 2 workcell. Immunostaining was performed using an automated AutoElisa workcell. […] The plates were incubated overnight at 4° C. […] The mean total intensity was normalized for cell number giving the total intensity per cell. The data was exported into a suitable software package (such as Origin) to perform curve fitting analysis.

The chains behind the UniProt entries cited, without tags or fusion partners.
UniProt P03372, whole entry: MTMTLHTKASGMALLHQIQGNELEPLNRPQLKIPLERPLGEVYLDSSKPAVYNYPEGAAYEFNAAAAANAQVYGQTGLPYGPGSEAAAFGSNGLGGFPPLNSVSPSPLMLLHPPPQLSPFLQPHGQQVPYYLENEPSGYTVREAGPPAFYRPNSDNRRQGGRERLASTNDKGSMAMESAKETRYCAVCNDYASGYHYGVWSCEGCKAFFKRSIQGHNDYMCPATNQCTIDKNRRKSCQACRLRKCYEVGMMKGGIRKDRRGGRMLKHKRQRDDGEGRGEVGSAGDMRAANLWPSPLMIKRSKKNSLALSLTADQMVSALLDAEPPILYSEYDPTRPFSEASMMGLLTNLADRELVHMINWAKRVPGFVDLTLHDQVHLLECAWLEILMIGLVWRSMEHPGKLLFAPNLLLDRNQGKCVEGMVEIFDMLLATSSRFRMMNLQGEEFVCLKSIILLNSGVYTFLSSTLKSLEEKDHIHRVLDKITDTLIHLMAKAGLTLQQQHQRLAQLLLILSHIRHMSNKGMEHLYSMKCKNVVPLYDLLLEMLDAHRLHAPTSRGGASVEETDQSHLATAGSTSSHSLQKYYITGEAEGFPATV

`COC[C@](C)(F)CN1[C@H](c2ccc(OC3CN(CCCF)C3)cc2OC)c2ccc3[nH]ncc3c2C[C@H]1C` (single isomer, unassigned) [Example 12]: the “% downregulation in the ER down-regulation assay” value came to 83%.

The values above are taken from US10961241B2, “Chemical compounds” (AstraZeneca AB, priority 2016, dated 2021).
